The text below walks through data of article PMC3177597 (Bioorganic & medicinal chemistry letters, 2009).

By UniProt entry, the sequences of proteins in these tests, tags left out. Residues count along the entry.
UniProt P31424, 21-1203: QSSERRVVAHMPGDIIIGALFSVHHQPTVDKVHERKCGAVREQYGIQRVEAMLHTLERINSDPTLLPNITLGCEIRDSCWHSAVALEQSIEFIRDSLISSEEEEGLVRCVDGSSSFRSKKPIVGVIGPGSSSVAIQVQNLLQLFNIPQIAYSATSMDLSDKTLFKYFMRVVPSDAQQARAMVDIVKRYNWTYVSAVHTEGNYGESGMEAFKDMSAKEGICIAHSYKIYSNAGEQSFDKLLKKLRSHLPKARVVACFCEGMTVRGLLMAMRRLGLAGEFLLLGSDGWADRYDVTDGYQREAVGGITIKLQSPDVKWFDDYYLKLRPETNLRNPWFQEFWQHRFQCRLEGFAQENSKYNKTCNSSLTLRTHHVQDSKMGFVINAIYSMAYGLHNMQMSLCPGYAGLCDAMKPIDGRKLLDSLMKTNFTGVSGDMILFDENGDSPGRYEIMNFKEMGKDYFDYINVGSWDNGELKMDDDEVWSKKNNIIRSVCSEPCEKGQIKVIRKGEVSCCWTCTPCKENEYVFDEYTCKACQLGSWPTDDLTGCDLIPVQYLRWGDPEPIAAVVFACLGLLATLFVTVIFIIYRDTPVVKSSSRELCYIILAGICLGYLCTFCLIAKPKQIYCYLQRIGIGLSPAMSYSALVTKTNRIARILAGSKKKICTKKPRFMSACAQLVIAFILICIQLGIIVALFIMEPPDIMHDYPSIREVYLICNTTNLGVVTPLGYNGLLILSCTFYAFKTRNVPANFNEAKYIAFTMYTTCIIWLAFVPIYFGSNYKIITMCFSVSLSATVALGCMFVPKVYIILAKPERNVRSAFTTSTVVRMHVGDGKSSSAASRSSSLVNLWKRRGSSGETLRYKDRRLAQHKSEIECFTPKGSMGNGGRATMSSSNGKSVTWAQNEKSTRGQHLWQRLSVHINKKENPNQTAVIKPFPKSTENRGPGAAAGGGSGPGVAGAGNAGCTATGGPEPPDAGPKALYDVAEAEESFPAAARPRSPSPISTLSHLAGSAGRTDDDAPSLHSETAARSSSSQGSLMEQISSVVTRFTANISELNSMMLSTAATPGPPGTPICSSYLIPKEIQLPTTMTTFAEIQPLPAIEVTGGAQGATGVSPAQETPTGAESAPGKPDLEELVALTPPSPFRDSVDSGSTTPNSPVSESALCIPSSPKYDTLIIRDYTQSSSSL

One assay deals with rat mGluR5 receptor (Rattus norvegicus, UniProt P31424). In words: mGluR5 in vitro functional assay. Conditions: HTS DMSO stock solution.
Turning to `O=C(Nc1ccc(Cl)c(-c2nc3ccccc3[nH]2)c1)c1ccc(Br)o1` [compound 10, N-(3-(1H-benzo[d]imidazol-2-yl)-4-chlorophenyl)-5-bromofuran-2-carboxamide], the “IC50 from the HTS DMSO stock solutions (in words)” value is given as “submicromolar”. Regarding `O=C(Nc1ccccc1O)c1cccc(N2C(=O)c3ccccc3C2=O)c1` [compound 9, 3-(phthalimidyl)-N-(2-hydroxyphenyl)benzamide], the “IC50 from the HTS DMSO stock solutions (in words)” value is recorded as “submicromolar”.

The same assay, now with this note: NAM mode; HEK293A cells expressing rat mGluR5; nearly maximal glutamate.
`O=C(Nc1ccccc1O)c1cccc(N2C(=O)c3ccccc3C2=O)c1` [compound 9, 3-(phthalimidyl)-N-(2-hydroxyphenyl)benzamide]: the “% Glu Max” value was 1.59%.

Still in this assay, the particulars now being: compared to 9.
For the molecule `O=C(Nc1cccc(O)c1)c1cccc(N2C(=O)c3ccccc3C2=O)c1` [22a], the loss in potency is on record as 19 fold.

The assay is the same for the next values; noted with them: mGluR5 IC50, resynthesized compound.
For the molecule `O=C(Nc1ccccc1O)c1cccc(N2C(=O)c3ccccc3C2=O)c1` [compound 9, 3-(phthalimidyl)-N-(2-hydroxyphenyl)benzamide], the half-maximal inhibitory concentration (IC50) was found to be 417 nM.

Still in this assay, the particulars now being: read-out: mGluR5 IC50; HTS DMSO stock solution.
On to `O=C(Nc1ccccc1O)c1cccc(N2C(=O)c3ccccc3C2=O)c1` [compound 9, 3-(phthalimidyl)-N-(2-hydroxyphenyl)benzamide], for which the IC50 worked out at 77 nM.

The same assay, now with this note: resynthesized compound compared to the HTS stock solution.
With `O=C(Nc1ccccc1O)c1cccc(N2C(=O)c3ccccc3C2=O)c1` [compound 9, 3-(phthalimidyl)-N-(2-hydroxyphenyl)benzamide], the “loss in potency upon resynthesis” value is reported as “five”. Still for that read-out and setting: the result for `COc1ccccc1C(=O)Nc1cccc(NC(=O)c2cccc(Cl)c2)c1` [compound 8] reads 3 fold.

The same assay, now with this note: resynthesized compounds.
With `O=C(NC1CC1)c1cccc(N2C(=O)c3ccccc3C2=O)c1` [22i], the “mGluR5 antagonist activity (in words)” value is “inactive”. As for `O=C(Nc1ccccn1)c1cccc(N2C(=O)c3ccccc3C2=O)c1` [22f], the “mGluR5 antagonist activity (in words)” value is listed as “partial antagonist”. On to `O=C(Nc1cccnc1)c1cccc(N2C(=O)c3ccccc3C2=O)c1` [22e], for which the “mGluR5 antagonist activity (in words)” value was “inactive”. `COc1ccccc1NC(=O)c1cccc(N2C(=O)c3ccccc3C2=O)c1` [22c]: the “mGluR5 antagonist activity (in words)” value is listed as “lost all the activity”. `O=C(Nc1cccc(NC(=O)C23CC4CC(CC(C4)C2)C3)c1)c1cccc(Cl)c1` [17m]: the “mGluR5 antagonist activity (in words)” value was “inactive”.

Turning to `COCC(=O)Nc1cccc(NC(=O)c2cccc(Cl)c2)c1` [17t], the “mGluR5 antagonist activity (in words)” value was “no activity”. Regarding `COc1ccccc1C(=O)Nc1cccc(NC(=O)Cc2ccccc2)c1` [14l], the “mGluR5 antagonist activity (in words)” value is “inactive”.

As for `O=C(Nc1cccc(NC(=O)C2CCCC2)c1)c1cccc(Cl)c1` [17o], the “mGluR5 antagonist activity (in words)” value was “inactive”. For `COc1ccccc1C(=O)Nc1cccc(NC(=O)c2ccco2)c1` [14k], the “mGluR5 antagonist activity (in words)” value is “inactive”. With `O=C(Cc1ccccc1)Nc1cccc(NC(=O)c2cccc(Cl)c2)c1` [17k], the “mGluR5 antagonist activity (in words)” value was “inactive”.

Turning to `O=C(Nc1cccc(NC(=O)C2CC2c2ccccc2)c1)c1cccc(Cl)c1` (stereo not shown) [17l], the “mGluR5 antagonist activity (in words)” value is “inactive”. For `O=C(Nc1ccccc1F)c1cccc(N2C(=O)c3ccccc3C2=O)c1` [22g], the “mGluR5 antagonist activity (in words)” value is reported as “partial antagonist”. `CC(=O)Nc1cccc(NC(=O)c2cccc(Cl)c2)c1` [17s]: the “mGluR5 antagonist activity (in words)” value is “weak inhibition”. The same measure, in the same setting: the result for `COc1ccccc1C(=O)Nc1cccc(NC(=O)c2ccc3c(c2)OCO3)c1` [14j] reads “not tolerated”; that for `O=C(NC1CC2CCC1C2)c1cccc(N2C(=O)c3ccccc3C2=O)c1` (stereo not shown) [22j], “inactive”; that for `COc1ccccc1C(=O)Nc1cccc(NC(=O)c2ccc(F)cc2)c1` [14f], “not tolerated”.

Take `CC(C)C(=O)Nc1cccc(NC(=O)c2cccc(Cl)c2)c1` [17r]: the “mGluR5 antagonist activity (in words)” value is recorded as “weak inhibition”.
